Compound activity as filed in PubChem.
The list is not random: actives were taken first. Their share in the collection is about 1.2%.
Arrestin-AP2 inh: human beta-arrestin and AP2 interaction inhibition | hit rate 0.31% among 340,000 | FITC-arrestin peptide / GST-AP2 beads, flow cytometry; AP2 beta2 appendage carries R879A mutation | inhibition, % at 10 µM;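 active means inhibition above a set limit, near 3 SD of compounds lacking own fluorescence, cut at about 54% in these data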;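 further: plate controls were DMSO wells for no effect and 5 µM unlabelled arrestin peptide for full effect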
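Material – GST-tagged AP2 beta2-adaptin appendage (R879A) on 4 µm glutathione beads · Probe or stimulus – fluorescein-tagged arrestin peptide at 50 nM final · Timing – 12 min plus 1 h, RT · Detection – bead flow cytometry, FITC channel · Read-out basis – inhibition as reduced fluorescein signal on beads, percent · Medium – PBS plus Tween 20 (0.05%) and BSA (0.1%)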
Tb MetRS inh: blocks T. brucei methionyl-tRNA synthetase activity | inhibition, % at 11.9 µM | purified T. brucei MetRS, ATP depletion, Kinase-Glo luminescence | hit rate 0.4% among 360,000;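 active means inhibition above a per-plate cutoff of the control wells' mean inhibition plus 3 SD, cut at about 5.5% in these data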;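 further: 0% = DMSO wells median and 100% = median of wells with control inhibitor compound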
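Test system: purified T. brucei MetRS enzyme. Also added: ATP, methionine and E. coli bulk tRNA substrates. Compound: 11.9 µM single point. Schedule: 15 min enzyme-compound preincubation, 2 h reaction, 10 min detection, 25 °C. Signal: luciferase luminescence of residual ATP, Kinase-Glo. Evaluation: percent inhibition versus plate control medians. Controls: DMSO wells, low control.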
Rce1 inh: yeast Ras-converting enzyme inhibition; AID 2563; yeast membranes, quenched prenylated peptide cleavage fluorescence; hit rate 0.27% among 290,000; calls only; Q03530;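 active means fall in fluorescence gain of 50% or more versus controls, with final raw signal at or below 3038400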;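 further: plate controls were neutral control wells for no effect and wells lacking membranes for full effect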
DSG3 Ab inh: human desmoglein-3 autoantibody binding inhibition; DSG3-coupled beads, scFv-anti-DSG3-GFP binding, flow cytometry; hits give low values; binding (percent of control), % at 10 µM; hit rate 0.48% among 310,000;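 active means binding more than 3 SD below its plate's average and above zero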;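 further: hits lower antibody fragment binding to DSG3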
Yeast UUG start: yeast start codon fidelity modulation | S. cerevisiae UUG-firefly luciferase reporter, luminescence/redox ratio | activity score, % at 18.7 µM | hit rate 0.13% among 350,000 | AID 602363;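 active means replicate mean at a twofold rise or more, about +100% in these data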;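 further: firefly luciferase made from a UUG start codon reports start codon fidelity; reporter light over untreated wells divided by growth signal over untreated wells; some hits fall short of that in this replicate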
* hit, by the source's call; i = inactive; . = not tested or not shown; + = active, no number.

Screens by letter – A = Arrestin-AP2 inh; B = Tb MetRS inh; C = Rce1 inh; D = DSG3 Ab inh; E = Yeast UUG start
1: Oc1ccccc1C(Nc1nccs1)c1ccc2cccnc2c1O (stereo not given)
  A = -7.0 | B = -0.4 | C = i | D = 70.0* | E = -37.7
2: Cc1noc(C)c1NC(=O)Nc1ccc2c(c1)C(=O)N([C@H](C)CO)C[C@@H](C)[C@H](CN(C)Cc1ccc(C(=O)O)cc1)OCCCC[C@@H](C)O2
  A = . | B = . | C = . | D = . | E = -2.9
3: O=C(C[C@@H]1C=C[C@@H](NS(=O)(=O)c2cccc(F)c2)[C@@H](CO)O1)N1CCCCC1
  A = . | B = . | C = . | D = . | E = -14.9
4: Cc1nc2c(=O)oc3ccccc3c2n1-c1ccccc1
  A = 5.5 | B = -0.5 | C = i | D = 100.6 | E = -4.1
5: CCn1c(C)nc2c(=O)oc3ccccc3c21
  A = 0.9 | B = -0.6 | C = + | D = 106.5 | E = -15.3
6: C[C@@H]1CN([C@@H](C)CO)C(=O)Cc2cc(NC(=O)Nc3ccc4c(c3)OCO4)ccc2O[C@H]1CN(C)Cc1ccncc1
  A = . | B = . | C = . | D = . | E = -3.4
7: COc1ccc(NC(=O)c2cc3c(COC(C)=O)cnc(C)c3oc2=Nc2cccc(C(=O)O)c2)c(OC)c1
  A = -5.5 | B = -1.6 | C = i | D = 66.0* | E = 10.5
8: C[C@H](NC(=O)C[C@@H]1CC[C@H](NC(=O)C2CCOCC2)[C@H](CO)O1)c1ccccc1
  A = . | B = . | C = . | D = . | E = -3.0
9: O=C(CCl)Nc1ccccc1Sc1ccccc1
  A = 30.9 | B = -0.4 | C = . | D = 103.3 | E = 508.5*
10: O=S(=O)(O)c1ccc(O)c2cc(Nc3ccccc3)ccc12
  A = 2.2 | B = 0.0 | C = . | D = 37.9* | E = 13.9
11: O=S(=O)(O)c1cc(O)c2cc(Nc3ccccc3)ccc2c1
  A = 8.4 | B = 0.0 | C = . | D = 77.6 | E = 5.6
12: O=S(=O)(O)c1cc(O)c2ccc(Nc3ccccc3)cc2c1
  A = 3.3 | B = 0.1 | C = . | D = 44.4* | E = 6.0
13: Cc1ccc(S(=O)(=O)c2cc(Nc3ccccc3)ccc2O)cc1
  A = 19.1 | B = 0.0 | C = i | D = 98.1 | E = -2.2
14: COc1cccc(N2CC(O)=C(c3nc4ccccc4c(=O)[nH]3)C2=N)c1
  A = 4.9 | B = -1.2 | C = i | D = 125.8 | E = -4.6
15: Cc1cc(C)cc(N2CC(O)=C(c3nc4ccccc4c(=O)[nH]3)C2=N)c1
  A = -6.7 | B = -0.5 | C = + | D = 95.8 | E = .
16: CN1C(=O)c2cc(NC(=O)c3ccc(F)cc3)ccc2OC[C@@H]2O[C@H](CC(=O)N3CCOCC3)CC[C@H]21
  A = . | B = . | C = . | D = . | E = 6.6
17: CC(C)NC(=O)C1CCN(Cc2cccc(OCc3ccccc3)c2)CC1
  A = . | B = -0.5 | C = . | D = 82.9* | E = -13.0
18: Cc1ccc(S(=O)(=O)N(C)C[C@H]2Oc3c(NC(=O)Nc4ccc5c(c4)OCO5)cccc3C(=O)N([C@H](C)CO)C[C@@H]2C)cc1
  A = . | B = . | C = . | D = . | E = 5.4
19: O=C(CN1CCOCC1)NCC[C@@H]1CC[C@@H](NC(=O)c2ccc3c(c2)OCO3)[C@H](CO)O1
  A = . | B = . | C = . | D = . | E = -13.3
20: CN(C)CCN(C(=O)c1ccc2ccccc2c1)c1nc2ccc(Br)cc2s1
  A = 47.1 | B = -0.4 | C = + | D = 103.8 | E = -18.9
21: Cc1ccc2nc(N(CCN(C)C)C(=O)c3ccc4ccccc4c3)sc2c1
  A = 24.6 | B = -0.3 | C = + | D = 101.8 | E = -19.7
22: CN(C)CCN(C(=O)c1ccc2ccccc2c1)c1nc2cc3c(cc2s1)OCCO3
  A = 33.4 | B = 0.2 | C = i | D = . | E = 1.6
23: CCN(CC)CCN(C(=O)c1ccc2ccccc2c1)c1nc2ccc(F)cc2s1
  A = 3.1 | B = -0.8 | C = + | D = 104.1 | E = 0.8
24: Cc1cccc2sc(N(CCN(C)C)C(=O)c3ccc4ccccc4c3)nc12
  A = 50.6 | B = -0.6 | C = + | D = 102.6 | E = -25.7
25: COc1ccc2nc(N(CCN(C)C)C(=O)c3ccc4ccccc4c3)sc2c1
  A = -8.3 | B = -0.2 | C = i | D = 113.1 | E = -2.7

(more compounds)
Screens by letter – A = Arrestin-AP2 inh; B = Tb MetRS inh; C = Rce1 inh; D = DSG3 Ab inh; E = Yeast UUG start
26: NCC[C@H]1CC[C@H](NC(=O)Nc2ccc(F)cc2)[C@H](CO)O1
  A = . | B = . | C = . | D = . | E = 15.6
27: C[C@@H]1CCCCO[C@H](CN(C)C(=O)Nc2ccccc2)[C@@H](C)CN([C@@H](C)CO)C(=O)c2cc(NC(=O)c3ccncc3)ccc2O1
  A = . | B = . | C = . | D = . | E = 17.0
28: C[C@@H]1CN([C@H](C)CO)C(=O)c2cc(N(C)C)ccc2O[C@H]1CN(C)Cc1ccc(Cl)c(Cl)c1
  A = . | B = . | C = . | D = . | E = 11.9
29: O=C(O)C1(Nc2ccc(Cl)cc2)CCCC1
  A = 1.6 | B = -0.4 | C = . | D = 90.6 | E = 2.0
30: NC(=O)C1(Nc2ccc(-c3ccc(Cl)cc3)cc2)CCCC1
  A = -2.2 | B = 0.8 | C = . | D = 54.2* | E = -22.8
31: COC(=O)c1ccc(C2C(Oc3ccc(OC)cc3)C(=O)N2CCc2ccc(OC)c(OC)c2)cc1 (stereo not given)
  A = 1.1 | B = -0.1 | C = i | D = 72.5* | E = -15.2
32: COC(=O)c1ccc(C2C(Oc3ccccc3)C(=O)N2CCc2ccc(F)cc2)cc1 (stereo not given)
  A = 4.2 | B = -0.3 | C = i | D = 100.3 | E = -20.6
33: CO[C@H]1CN(C)C(=O)c2ccc(NC(=O)C3CCC3)cc2OC[C@@H](C)N(Cc2cccnc2)C[C@@H]1C
  A = . | B = . | C = . | D = . | E = -10.6

Complete entries, looked up by structure. Order of screens: Arrestin-AP2 inh	Tb MetRS inh	Rce1 inh	DSG3 Ab inh	Yeast UUG start
C[C@@H]1CCCCO[C@H](CN(C)C(=O)Nc2ccccc2)[C@@H](C)CN([C@@H](C)CO)C(=O)c2cc(NC(=O)c3ccncc3)ccc2O1 is listed with .	.	.	.	17.0
O=C(O)C1(Nc2ccc(Cl)cc2)CCCC1 is listed with 1.6	-0.4	.	90.6	2.0
C[C@@H]1CN([C@H](C)CO)C(=O)c2cc(N(C)C)ccc2O[C@H]1CN(C)Cc1ccc(Cl)c(Cl)c1 is listed with .	.	.	.	11.9
